Measured values: article PMC9200282, “GPR15L is an epithelial inflammation-derived pruritogen” (Science Advances, 2022)

Sequences of proteins named here, by UniProt entry; tags and fusion partners are left off. A change or cut given only in a name is not applied to a line headed by its entry.
UniProt Q96LB2: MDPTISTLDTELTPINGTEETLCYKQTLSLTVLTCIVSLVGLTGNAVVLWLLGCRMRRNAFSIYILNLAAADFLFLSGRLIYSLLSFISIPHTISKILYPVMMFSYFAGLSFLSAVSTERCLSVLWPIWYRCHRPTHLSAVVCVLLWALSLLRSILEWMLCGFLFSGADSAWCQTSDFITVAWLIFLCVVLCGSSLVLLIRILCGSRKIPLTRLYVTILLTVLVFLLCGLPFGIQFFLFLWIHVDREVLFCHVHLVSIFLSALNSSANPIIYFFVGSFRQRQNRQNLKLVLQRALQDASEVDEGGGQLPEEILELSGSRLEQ

How the values were obtained:
LAD2 human mast cells = experiment: Calcium imaging of LAD2 human mast cells; assay type: cell-based; conditions: 1 μM
Procedure: LAD2 cells were maintained in StemPro-34 (Gibco) supplemented with recombinant human stem cell factor (100 ng/ml) and penicillin/streptomycin, as described previously ([32]). LAD2 cells were loaded with Fluo-8 AM for 30 min at 37°C, washed twice in Hanks’ balanced salt solution (HBSS), and incubated for 30 min at room temperature.

mice [1] = experiment: Scratching behavior after intradermal injection, wild-type mice; assay type: in vivo, mouse; conditions: for scratching response: 10 μl in saline, nape
From the text: (§1) Experiments using mice followed NIH guidelines and were approved by the National Institute of Dental and Craniofacial Research Animal Care and Use Committee. Eight- to twelve-week-old male and female mice were used: C57BL/6N (Envigo), Gpr15l (2610528A11Rik) KO (#TF3294, Taconic Bioscience Inc.), Sash mutant (c-Kit ^w-sh) mice (#030764, The Jackson Laboratory), Rag2 KO (recombination activating gene 2 deletion) mice (#033526, The Jackson Laboratory), ROSA-stop-DTA (#009669, The Jackson Laboratory) ([59]), Mrgpra3-Cre-eGFP from X. Dong ([36]), and Mcpt5-Cre ([33]).
(§2) Behavioral assessment of scratching was conducted as previously described ([60]). Recombinant GPR15L/Gpr15l peptides (Genscript USA Inc. or Biomatek USA LLC) or other pruritogens were intradermally injected (10 μl in saline) into the mouse nape area. Bouts were defined as scratching events directed toward the site of injection from lifting the hind leg from the ground to returning it. Itch responses were quantified by the bouts evoked within 30 min after chemical injection. In some behavioral tests, scratching bouts were automatically counted with the MicroAct system (Neuroscience, Inc.), and the monitor time was extended to 60 min as previously described ([61]). Briefly, a magnet (1 mm in diameter and 3 mm in length) was implanted under the skin of the dorsal hind paw at least 7 days before the behavioral tests ([62]). About 10 min before the tests, mice were placed into a special observation chamber with a ring coil. Vertical movements of the implanted magnets will induce currents, which were recorded. Scratching bouts were determined using MicroAct software ([63], [64]).

[2] = system: sushi domain containing 2 (SUSD2); conditions: cited from earlier work
From the text: (§3) Inflammation is an important skin reaction evoked to various challenges. Among these responses, the release of various damage-associated molecular pattern (DAMP) agents causes stimulation in the innate immune system ([12]). Another dermal reaction during inflammation is the release of antimicrobial substances. In the skin, these include the release of peptides such as β-defensins, cathelicidin (LL-37), and eosinophil major basic protein (PRG2). Another peptide, C10orf99 (chromosome 10 open reading frame 99), which encodes a 57–amino acid cationic peptide, was implicated as an antimicrobial ([1 ...

GPR15 = conditions: cited from earlier work
From the text: as §3

Mcpt5-DTA mice = experiment: Scratching behavior, mast cell-lacking (Mcpt5-DTA) mice; assay type: in vivo, mouse; conditions: mast cell-deficient mice
From the text: as §1
as §2, with “Briefly, a magnet (1 mm in diameter and 3 mm in length) was implanted under the skin of the dorsal hind paw at least 7 days before the behavioral tests ([62]). About 10 min before the tests, mice were placed into a special observation chamber with a ring coil.” left out

MRGPRX1 = target: T1, MRGPRX1 (Homo sapiens, UniProt Q96LB2); experiment: FLIPR calcium screening, MRGPRX1; assay type: cell-based; conditions: MRGPRX1 vs MRGPRX2
T1 construct: host or cells: HEK293
Procedure: HEK293 cells were cultured in DMEM/F12 supplemented with 10% FBS, penicillin (100 U/ml), and streptomycin (100 μg/ml). For transient expression, 8 × 10^5 cells were seeded, cultured for 24 hours, and transfected using TransIT-293 (Mirus Bio). Cells were transfected with GCaMP6s, Gα15 subunit, together with an individual MRG receptor. Expression vectors for MRGPRX1, MRGPRX2, MRGPRX3, MRGPRX4, MRGPRD, MRGPRE, MRGPRF, and MRGPRG were obtained from Addgene. Mouse Mrgpr expression vectors for Mrgpra1, Mrgpra2b, Mrgpra3, Mrgprb2, Mrgprb4, Mrgprc11, and Mrgprd were obtained from X. Dong at Johns Hopkins University ([68]) as well as for Mrgpre (GenScript Inc.). After 48 hours, cells were plated at 20,000 cells per well in 96-well plates with HBSS (with calcium and magnesium) and measurements were made. The EC50 values were determined with a three-parameter dose-response curve in GraphPad Prism.

[3] = system: Gram-positive bacteria, fungi, and virus; conditions: cited from earlier work
From the text: The human genome encodes eight MRGPR genes, while the mouse genome encodes more than 30 Mrgpr genes ([45]–[47]). The functional homology between human and mouse MRGPR proteins is not well defined. Nevertheless, it is acknowledged that there are strong similarities between MRGPRX2 and Mrgprb2 expressed in mast cells ([46]) and between MRGPRX1 and Mrgpra3 ...

mice [4] = experiment: Evans blue extravasation, wild-type mice; assay type: in vivo, mouse; conditions: intraplanar
From the text: as §1
Evans blue was used to assay extravasation as previously described ([44]). Briefly, Evans blue powder (Sigma-Aldrich) was dissolved in saline to 1% working solution. Approximately 200 to 250 μl (100 mg/kg) of the solution was injected through mouse tail veins. Hind paws were injected subcutaneously with 10 μl of GPR15L/Gpr15l peptide (GenScript USA Inc. and Biomatek USA LLC), and an equal volume of saline was injected into the contralateral paw. Tissues were dissected, air-dried overnight, weighed, and then immersed into 400 μl of formamide overnight. Optical density (OD) values (mg/ml) were measured with a spectrophotometer at 610-nm wavelength. Plasma extravasation values were calculated by normalized OD values with tissue weights.

CC(C)C[C@H](NC(=O)[C@H](CCCNC(=N)N)NC(=O)[C@@H](NC(=O)[C@H](Cc1c[nH]cn1)NC(=O)[C@H](Cc1c[nH]cn1)NC(=O)CNC(=O)[C@H](CCCCN)NC(=O)[C@H](CC(C)C)NC(=O)[C@H](CC(N)=O)NC(=O)[C@@H](NC(=O)[C@H](CO)NC(=O)[C@H](CC(N)=O)NC(=O)[C@@H]1CCCN1C(=O)[C@H](CO)NC(=O)[C@@H]1CCCN1C(=O)[C@@H](NC(=O)[C@H](CCCNC(=N)N)NC(=O)[C@H](Cc1c[nH]cn1)NC(=O)[C@H](CS)NC(=O)[C@H](CS)NC(=O)[C@H](CC(C)C)NC(=O)[C@H](CCCNC(=N)N)NC(=O)[C@@H](NC(=O)[C@H](CCCNC(=N)N)NC(=O)[C@H](CCCNC(=N)N)NC(=O)CNC(=O)[C@H](CO)NC(=O)[C@H](Cc1c[nH]c2ccccc12)NC(=O)[C@H](C)NC(=O)[C@H](CCCCN)NC(=O)[C@H](C)NC(=O)[C@@H]1CCCN1C(=O)[C@H](CCCNC(=N)N)NC(=O)[C@H](CCCNC(=N)N)NC(=O)[C@@H](N)CCCCN)[C@@H](C)O)C(C)C)[C@@H](C)O)C(C)C)C(=O)N[C@@H](CS)C(=O)N[C@@H](CCCCN)C(=O)N1CCC[C@H]1C(=O)N[C@@H](CS)C(=O)N[C@@H](CCCCN)C(=O)N[C@@H](CC(C)C)C(=O)N[C@@H](CCC(=O)O)C(=O)N1CCC[C@H]1C(=O)N[C@@H](CCC(=O)O)C(=O)N1CCC[C@H]1C(=O)N[C@@H](CCCNC(=N)N)C(=O)N[C@@H](CC(C)C)C(=O)N[C@@H](Cc1c[nH]c2ccccc12)C(=O)N[C@H](C(=O)N[C@H](C(=O)N1CCC[C@H]1C(=O)NCC(=O)N[C@@H](C)C(=O)N[C@@H](CC(C)C)C(=O)N1CCC[C@H]1C(=O)N[C@@H](CCC(N)=O)C(=O)N[C@H](C(=O)O)C(C)C)C(C)C)C(C)C [GPR15L]
increase in intracellular calcium (LAD2 human mast cells): triggered increases in intracellular calcium
scratching response (mice [1]): dose-dependently evoked robust scratching responses in mice
scratching response (mice [1]; listed as human GPR15L): evoked intense itch phenotype
pruritic potency (molar concentrations) (mice [1]; Fig. 2B): higher than that for both histamine and chloroquine
duration of scratching response vs chloroquine (mice [1]; n = 6 in 1 mM, n = 4 in 3 mM, chloroquine n = 5): long-lasting pruritogenic effects when compared to chloroquine; also recorded: long-lasting scratching responses when compared to chloroquine
SUSD2 ligand [2]: ligand for sushi domain containing 2 (SUSD2)
GPR15 ligand (GPR15): cognate ligand
itch phenotype after mast cell depletion (Mcpt5-DTA mice): not reduced by mast cell depletion
EC50 for MRGPRX1 relative to MRGPRX2 (printed "lower") (MRGPRX1): about 10 fold
antimicrobial activity [3]: broad-spectrum antimicrobial peptide
vascular permeability / extravasation (mice [4]): increased vascular permeability resulting in extravasation

Entries after “also recorded” stand apart in the source; their conditions may differ.
